From ChEMBL document CHEMBL2412999, “Anticonvulsant properties of histamine H3 receptor ligands belonging to N-substituted carbamates of imidazopropanol” (Bioorg Med Chem Lett, 2013)

By UniProt entry, the sequences of proteins in these tests, tags left out. Where a name states a change or a piece, a line headed by the entry shows the natural chain unless it says otherwise.
UniProt Q9Y5N1: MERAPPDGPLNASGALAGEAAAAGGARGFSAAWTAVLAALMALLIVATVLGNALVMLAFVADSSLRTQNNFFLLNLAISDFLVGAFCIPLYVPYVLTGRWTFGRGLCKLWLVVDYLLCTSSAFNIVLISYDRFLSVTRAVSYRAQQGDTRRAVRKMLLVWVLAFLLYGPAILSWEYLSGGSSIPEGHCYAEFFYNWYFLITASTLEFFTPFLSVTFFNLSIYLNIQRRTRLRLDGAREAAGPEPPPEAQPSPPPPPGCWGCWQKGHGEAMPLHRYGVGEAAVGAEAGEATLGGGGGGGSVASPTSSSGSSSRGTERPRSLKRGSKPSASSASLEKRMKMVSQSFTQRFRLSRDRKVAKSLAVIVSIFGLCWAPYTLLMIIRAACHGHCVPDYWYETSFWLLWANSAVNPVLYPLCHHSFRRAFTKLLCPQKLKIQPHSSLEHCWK

Target: Histamine H3 receptor (Homo sapiens, UniProt Q9Y5N1)
Experiment: Displacement of [125I]iodoproxyfan from human histamine H3 receptor expressed in CHO-K1 cells
Format: cell-based

- Ki: 550 nM
SMILES: C=CCCNC(=O)OCCCc1c[nH]cn1
